# Sampled rows, rich in hits. Any-hit rate of the full collection: about 1.5%.
# RAD52 anneal inh – RAD52 (human) annealing inhibition; recombinant RAD52 DNA annealing, FRET fluorescence; P43351; actives 0.46% (n = 360,000); inhibition, % at 18.7 µM;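 active = every replicate showing at least 50% inhibition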
# RAD54 branch – blocks human RAD54 Holliday junction branch migration; Q92698; FAM/BHQ fluorescence; inhibition, % at 10.4 µM; actives 0.14% (n = 360,000);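 active = mean normalized replicate activity at least 40 and at least half of replicates scoring 40 or more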;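 also: inhibitors cause a drop in the FAM fluorescence signal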
# INS-1E GSIS act – GLuc luminescence reporter in INS-1E cells, primary screen for activators of glucose-dependent secretion of insulin; INS-1E GLuc reporter insulin secretion, 2-3 h; activation, % at 16.6 µM; actives 0.61% (n = 370,000); AID 743287;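 active = lowest replicate activation of at least 40%, so every replicate reaches that level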
# Casp6 inh – inhibitors of human caspase-6. P55212. purified caspase-6, Z-VEID-R110 cleavage fluorescence. inhibition, % at 12.5 µM. actives 0.53% (n = 350,000). AID 686996;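 active = mean inhibition across replicates at least about 35%, with every replicate also reaching that limit, limit read from the data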
# Yeast UUG start – alters start codon recognition fidelity in yeast | S. cerevisiae UUG-firefly luciferase reporter, luminescence/redox ratio | activity score, % at 18.7 µM | 350,000 compounds, 0.13% hits | AID 602363;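 active = replicate mean at a twofold rise or more, about +100% in these data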;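 note: firefly luciferase made from a UUG start codon reports start codon fidelity; reporter light over untreated wells divided by growth signal over untreated wells; some hits fall short of that in this replicate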
# PglD DTNB – PglD (C. jejuni) enzyme inhibition. inhibition, % at 12.5 µM. purified PglD enzyme, DTNB colorimetric CoA detection. AID 602405. actives 0.098% (n = 360,000); in the data active = inhibition above about 16%, passing the limit was not always enough
# Hits are given with their value; – = inactive; · = not tested or not shown; ! = not confirmed by another sample.
SMILES,RAD52 anneal inh,RAD54 branch,INS-1E GSIS act,Casp6 inh,Yeast UUG start,PglD DTNB
C[C@@H]1CCCCO[C@H](CN(C)Cc2ccc3c(c2)OCO3)[C@@H](C)CN([C@@H](C)CO)C(=O)c2cc(NS(=O)(=O)c3ccccc3)ccc2O1,–,–,–,35,–,–
C[C@@H]1CCCCO[C@@H](CN(C)Cc2ccc3c(c2)OCO3)[C@H](C)CN([C@@H](C)CO)C(=O)c2cc(NS(=O)(=O)c3ccccc3)ccc2O1,–,–,–,–,–,–
CCOC(=O)C1(C)CCCCN1C(=O)c1cccc(Cl)c1 (configuration not stated),–,–,96,–,–,–
O=C(NCC[C@H]1CC[C@@H](NC(=O)c2cccnc2)[C@@H](CO)O1)Nc1ccc(F)cc1,–,–,–,–,–,–
O=C(NCC[C@H]1CC[C@H](NC(=O)c2cccnc2)[C@H](CO)O1)Nc1ccc(F)cc1,50,–,–,–,203,–
O=C(NCC[C@@H]1CC[C@@H](NC(=O)Nc2cc(F)ccc2F)[C@H](CO)O1)Nc1ccc(F)cc1,56,–,–,–,–,–
O=C(NCC[C@H]1CC[C@H](NC(=O)Nc2cc(F)ccc2F)[C@H](CO)O1)Nc1ccc(F)cc1,–,–,–,–,–,–
C[C@H](CO)N1C[C@H](C)[C@H](CN(C)C(=O)c2cnccn2)Oc2ncc(C#CCC3CCCC3)cc2C1=O,–,–,–,–,–,–
C=CCNC(=S)Nc1ccc2cn[nH]c2c1,–,·,40,–,·,·
O=C(CSc1nnc(Nc2ccccc2F)s1)NC1CCS(=O)(=O)C1 (configuration not stated),–,–,·,–,–,–
O=C(CSc1nnc(Nc2ccccc2F)s1)NC(=O)CN1CCCC1=O,–,–,–,42,–,–
CN(C)CCNc1ncnc2oc(-c3ccccc3)c(-c3ccccc3)c12,–,–,53,–,–,–
C=CCC(NCc1ccccc1)c1ccc(Cl)cc1 (configuration not stated),–,–,–,54,–,–
CCCCOc1ccc(/C=C/C(=O)OCC(=O)NC2CCS(=O)(=O)C2)cc1OCC (configuration not stated),–,·,45,–,·,·
COc1ccc(/C=C/C(=O)OCC(=O)NC2CCS(=O)(=O)C2)cc1 (configuration not stated),–,–,–,–,–,–
Cc1cccc(OCCC(=O)NNC(=O)Cn2nc(C)cc2C)c1,–,–,–,–,–,–
CCOc1ccccc1OCCC(=O)NNC(=O)Cn1nc(C)cc1C,–,–,53,46,–,–
C=CCc1cccc2cc(C(=O)N3CCN(C(=O)c4ccccc4)CC3)c(=O)oc12,–,–,–,–,–,–
C#CC(=O)CC1(CN(Cc2ccccc2)C(=O)OC(C)(C)C)CCCCC1,–,–,54,–,–,–
O=C(Nc1cccc([N+](=O)[O-])c1)N1CCCCCC1,–,–,63,–,–,–
CC(=O)Nc1cccc(NC(=O)c2cc([N+](=O)[O-])ccc2N2CCCCC2)c1,–,–,–,36,–,–
COc1ccc(CN(C)C[C@@H]2OCCCC[C@H](C)Oc3ccc(NS(=O)(=O)c4ccc(Cl)cc4)cc3C(=O)N([C@H](C)CO)C[C@@H]2C)cc1,55,–,–,–,–,–
COc1ccc(CN(C)C[C@H]2OCCCC[C@@H](C)Oc3ccc(NS(=O)(=O)c4ccc(F)cc4)cc3C(=O)N([C@@H](C)CO)C[C@@H]2C)cc1,–,–,–,–,–,–
COc1ccc(CN(C)C[C@@H]2OCCCC[C@@H](C)Oc3ccc(NS(=O)(=O)c4ccc(Cl)cc4)cc3C(=O)N([C@@H](C)CO)C[C@H]2C)cc1,–,–,–,–,–,–
COc1ccc(CN(C)C[C@H]2OCCCC[C@H](C)Oc3ccc(NS(=O)(=O)c4ccc(F)cc4)cc3C(=O)N([C@H](C)CO)C[C@H]2C)cc1,55,–,–,–,–,–
SMILES,RAD52 anneal inh,RAD54 branch,INS-1E GSIS act,Casp6 inh,Yeast UUG start,PglD DTNB
O=C(Nc1ccc(F)cc1)N1CCCCN2[C@H](CO)[C@H](c3ccc(-c4ccccc4F)cc3)[C@H]2C1,60,–,·,–,–,–
O=C(Nc1ccc(F)cc1)N1CCCCN2[C@H](CO)[C@@H](c3ccc(-c4ccccc4F)cc3)[C@@H]2C1,–,–,·,–,–,–
O=C(c1cccc(F)c1)N1CCCCN2[C@H](CO)[C@@H](c3ccc(-c4ccc(F)cc4)cc3)[C@H]2C1,–,–,·,–,–,–
O=S(=O)(c1ccccc1)N1CCCCN2[C@@H](CO)[C@H](c3ccc(-c4ccccc4F)cc3)[C@@H]2C1,–,–,–,·,–,–
O=S(=O)(c1ccc(F)cc1)N1CCCCN2[C@H](CO)[C@@H](c3ccc(-c4ccccc4F)cc3)[C@H]2C1,56,–,·,–,–,–
O=C(Nc1ccccc1)N1CCCCN2[C@H](C1)[C@H](c1ccc(-c3ccccc3F)cc1)[C@@H]2CO,–,–,–,–,–,–
O=C(Nc1ccc(F)cc1)N1CCCCN2[C@H](CO)[C@@H](c3ccc(-c4ccccc4F)cc3)[C@H]2C1,53,–,·,–,–,–
O=C(c1cccc(F)c1)N1CCCCN2[C@@H](CO)[C@@H](c3ccc(-c4ccc(F)cc4)cc3)[C@@H]2C1,53,–,·,–,–,–
C[C@H](CO)N1C[C@H](C)[C@@H](CN(C)C(=O)NC2CCCCC2)Oc2ccc(NC(=O)Nc3ccccc3)cc2CC1=O,–,–,–,–,–,–
Cc1cc(C)c(OCC(=O)NCC2CCCO2)c(C)c1 (configuration not stated),–,·,–,–,·,·
O=C(Nc1cccnc1Cl)C1=NN(c2ccccc2)C(=O)CC1,–,–,48,–,–,–
COc1cccc(CN2C[C@@H]3N[C@H](C2)C3c2ccc(-c3ccccc3C)cc2)c1 (some centres not stated),·,·,–,·,·,·
COc1cccc(CN2C[C@@H]3N[C@H](C2)C3c2ccc(-c3cccc(C#N)c3)cc2)c1 (some centres not stated),55,·,–,–,·,·
COc1cccc(-c2ccc(C3[C@@H]4CN(Cc5ccccn5)C[C@H]3N4)cc2)c1 (some centres not stated),·,·,–,·,·,·
COc1cc(CN2C[C@@H]3N[C@H](C2)C3c2ccc(-c3ccccc3C)cc2)cc(OC)c1 (some centres not stated),64,·,–,–,·,·
COc1ccc(-c2ccc(C3[C@@H]4CN(Cc5cccc(OC)c5)C[C@H]3N4)cc2)cc1 (some centres not stated),67,·,51!,–,·,·
COc1cccc(-c2ccc(C3[C@@H]4CN(Cc5cccc(F)c5)C[C@H]3N4)cc2)c1 (some centres not stated),53,·,755!,–,·,·
COc1cccc(CN2C[C@@H]3N[C@H](C2)C3c2ccc(-c3ccncc3)cc2)c1 (some centres not stated),–,·,–,–,·,·

# High-throughput results deposited in PubChem by Broad Institute.
